Measurements as given in ChEMBL document CHEMBL3868625, “Evaluation of known and novel inhibitors of Orai1-mediated store operated Ca2+ entry in MDA-MB-231 breast cancer cells using a Fluorescence Imaging Plate Reader assay” (Bioorg Med Chem, 2017).

Amino acid sequences for entries named in this document (tags omitted).
UniProt Q96D31, whole entry: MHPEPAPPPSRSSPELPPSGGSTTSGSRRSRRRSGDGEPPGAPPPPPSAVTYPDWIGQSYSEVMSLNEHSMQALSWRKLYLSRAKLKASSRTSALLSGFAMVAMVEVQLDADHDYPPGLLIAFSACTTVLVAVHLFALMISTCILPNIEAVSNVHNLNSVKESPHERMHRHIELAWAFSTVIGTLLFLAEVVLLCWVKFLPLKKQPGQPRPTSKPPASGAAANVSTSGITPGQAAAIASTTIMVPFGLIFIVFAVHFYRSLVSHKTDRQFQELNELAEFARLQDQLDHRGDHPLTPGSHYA

Molecular target: Calcium release-activated calcium channel protein 1 (Homo sapiens, UniProt Q96D31)
Test: Inhibition of Orai1-mediated store operated Ca2+ entry in human MDA-MB-231 cells assessed as reduction in BAPTA-induced Ca2+ depletion-stimulated SOCE activity preincubated for 15 mins followed by BAPTA addition in presence of extracellular Ca2+ by PBX-based FLIPR assay
Assay type: cell-based
Method in brief: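 MDA-MB-231 cells seeded at 2 × 10^3/well and assayed 3 days later on FLIPR. Loaded 1 h at 37°C with PBX Calcium dye (2 μM), 5% Signal Enhancer and 500 μM probenecid in PSS pH 7.3. Compound applied 15 min at room temperature. BAPTA (500 μM) then chelates extracellular Ca2+, and CPA empties stores. Peak 2 (SOCE) height is given as % inhibition against DMSO control; <10% at 100 μM counts as not active.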

IC50: 2800 nM
SMILES: Cc1nnsc1C(=O)Nc1ccc(-n2nc(C(F)(F)F)cc2C(F)(F)F)cc1
